Results reported in PMC12736141, “New Quinazolin-4(3H)-one Derivatives as Potential Antitumoral Compounds: Synthesis, In Vitro Cytotoxicity Against the HepG2 Cell Line, and In Silico VEGFR-2 Targeting-Based Studies” (Molecules, 2025).

Test system: human hepatocellular carcinoma (HepG2)
Test: MTT cytotoxicity assay on HepG2 cells
Type: cell-based
Settings: 48 h; SI = IC50 BJ/IC50 HepG2
Description: Compounds 5a–c were dissolved in dimethylsulfoxide (DMSO) at an initial concentration of 10 mM, which was diluted 10 times with the characteristic medium and placed on plates at final concentrations ranging from 12.5 to 150 μM. The cells were seeded on plates of 96 wells at a density of 1 × 10^4 cells per well and incubated for 48 h. The culture medium was removed, and then 100 µL MTT (3-(4,5-dimethylthiazol-2-yl)-2,5-diphenyltetrazolium bromide) was added for 1 h. After that, it was removed, and 150 µL of pure dimethylsulfoxide (DMSO) was added. The samples were read using an ELISA Reader (BioTek, Winooski, VT, USA) at 570 nm. […] All determinations were made in triplicate.
The half-maximal inhibitory concentration (IC50) values were calculated to evaluate the potency of compounds 5a–c by fitting the investigational data with a 4-parameter logistic curve to obtain the dose-effect curves. The experimental IC50 results are expressed as mean values ± standard deviation (SD) of the three biological replicates.
Two-way analysis of variance (ANOVA) with a post hoc Bonferroni test was used to statistically examine the relative cell viability (%), compared to the negative control (NC), which was 100%. Data were analyzed using the […] software (GraphPad Prism 8.0.2. Software, La Jolla, CA, USA). […]

In the case of `CNC(=O)c1cc(Oc2ccc(NC(=O)Nc3ccc(Cl)c(C(F)(F)F)c3)cc2)ccn1` [Sorafenib, reference compound], the “Selectivity Index (SI)” value is reported as 1.04.
